Activity calls are given as the source filed them. The calls are words filed in the database; no cut-off is given here.
Assays:
OS-RC-2 [1] = experiment: Reversal of sorafenib resistance in human OS-RC-2 cells assessed as optical density at 450 nm at 45 uM incubated for 24 hrs in presence of 27 uM sorafenib by microplate reader analysis (reference value: 0.316 to 0.328); type: functional
OS-RC-2 [2] = experiment: Reversal of sorafenib resistance in human OS-RC-2 cells assessed as optical density at 450 nm at 45 uM incubated for 24 hrs in presence of 12 uM sorafenib by microplate reader analysis (reference value: 0.776 to 0.944); type: functional
OS-RC-2 [3] = experiment: Reversal of sorafenib resistance in human OS-RC-2 cells assessed as optical density at 450 nm at 30 uM incubated for 24 hrs in presence of 24 uM sorafenib by microplate reader analysis (reference value: 0.414 to 0.448); type: functional
OS-RC-2 [4] = experiment: Reversal of sorafenib resistance in human OS-RC-2 cells assessed as optical density at 450 nm at 30 uM incubated for 24 hrs in presence of 6 uM sorafenib by microplate reader analysis (reference value: 1.025 to 1.182); type: functional
OS-RC-2 [5] = experiment: Antitumor activity against human OS-RC-2 cells xenografted in male immunodeficient BALB/c nude mouse assessed as tumor volume at 40 mg/kg/day, ip administered for 16 days and measured every other day (reference value: 741 +/- 294.89 mm3); type: functional; conditions: time 16 day
OS-RC-2 [6] = experiment: Antiproliferative activity against human OS-RC-2 cells assessed as optical density at 450 nm at 30 uM incubated for 24 hrs by CCK-8 assay (reference value: 1.501 to 1.613); type: functional
OS-RC-2 [7] = experiment: Reversal of sorafenib resistance in human OS-RC-2 cells assessed as optical density at 450 nm at 15 uM incubated for 24 hrs in presence of 24 uM sorafenib by microplate reader analysis (reference value: 0.414 to 0.448); type: functional
OS-RC-2 [8] = experiment: Reversal of sorafenib resistance in human OS-RC-2 cells assessed as optical density at 450 nm at 45 uM incubated for 24 hrs in presence of 15 uM sorafenib by microplate reader analysis (reference value: 0.645 to 0.850); type: functional
[9] = Toxicity in male immunodeficient BALB/c nude mouse xenografted with human OS-RC-2 cells assessed as histopathological changes in heart by measuring effect on cardiomyocyte morphology at 20 to 40 mg/kg/day, ip administered for 16 days by H and E staining based analysis; type: organism-based, Cardiac Muscle Cell; conditions: in vivo, 384 h, dose 20-40 mg/kg/day, time 16 day
OS-RC-2 [10] = experiment: Reversal of sorafenib resistance in human OS-RC-2 cells assessed as optical density at 450 nm at 45 uM incubated for 24 hrs in presence of 3 uM sorafenib by microplate reader analysis (reference value: 1.288 to 1.358); type: functional
OS-RC-2 [11] = experiment: Antiproliferative activity against human OS-RC-2 cells assessed as optical density at 450 nm at 45 uM incubated for 24 hrs by CCK-8 assay (reference value: 1.501 to 1.613); type: functional
OS-RC-2 [12] = experiment: Reversal of sorafenib resistance in human OS-RC-2 cells assessed as optical density at 450 nm at 45 uM incubated for 24 hrs in presence of 24 uM sorafenib by microplate reader analysis (reference value: 0.414 to 0.448); type: functional
OS-RC-2 [13] = experiment: Reversal of sorafenib resistance in human OS-RC-2 cells assessed as optical density at 450 nm at 30 uM incubated for 24 hrs in presence of 3 uM sorafenib by microplate reader analysis (reference value: 1.288 to 1.358); type: functional
OS-RC-2 [14] = experiment: Reversal of sorafenib resistance in human OS-RC-2 cells assessed as optical density at 450 nm at 30 uM incubated for 24 hrs in presence of 15 uM sorafenib by microplate reader analysis (reference value: 0.645 to 0.850); type: functional
OS-RC-2 [15] = experiment: Reversal of sorafenib resistance in human OS-RC-2 cells assessed as optical density at 450 nm at 15 uM incubated for 24 hrs in presence of 3 uM sorafenib by microplate reader analysis (reference value: 1.288 to 1.358); type: functional
OS-RC-2 [16] = experiment: Reversal of sorafenib resistance in human OS-RC-2 cells assessed as optical density at 450 nm at 30 uM incubated for 24 hrs in presence of 27 uM sorafenib by microplate reader analysis (reference value: 0.316 to 0.328); type: functional
OS-RC-2 [17] = experiment: Reversal of sorafenib resistance in human OS-RC-2 cells assessed as optical density at 450 nm at 15 uM incubated for 24 hrs in presence of 6 uM sorafenib by microplate reader analysis (reference value: 1.025 to 1.182); type: functional
OS-RC-2 [18] = experiment: Antiproliferative activity against human OS-RC-2 cells assessed as optical density at 450 nm at 15 uM incubated for 24 hrs by CCK-8 assay (reference value: 1.501 to 1.613); type: functional
OS-RC-2 [19] = experiment: Reversal of sorafenib resistance in human OS-RC-2 cells assessed as optical density at 450 nm at 30 uM incubated for 24 hrs in presence of 21 uM sorafenib by microplate reader analysis (reference value: 0.477 to 0.526); type: functional
[20] = Toxicity in male immunodeficient BALB/c nude mouse xenografted with human OS-RC-2 cells assessed as histopathological changes in lung by measuring appearance of thickened alveolar septa at 20 to 40 mg/kg/day, ip administered for 16 days by H and E staining based analysis; type: organism-based; conditions: in vivo, 384 h, dose 20-40 mg/kg/day, time 16 day
[21] = Toxicity in male immunodeficient BALB/c nude mouse xenografted with human OS-RC-2 cells assessed as reduction in body weight at 40 mg/kg/day, ip administered for 16 days and measured every other day (reference value: 21.34 +/- 0.91 g); type: organism-based; conditions: in vivo, 384 h, time 16 day
OS-RC-2 [22] = experiment: Reversal of sorafenib resistance in human OS-RC-2 cells assessed as optical density at 450 nm at 15 uM incubated for 24 hrs in presence of 9 uM sorafenib by microplate reader analysis (reference value: 1.094 to 1.099); type: functional
OS-RC-2 [23] = experiment: Reversal of sorafenib resistance in human OS-RC-2 cells assessed as optical density at 450 nm at 30 uM incubated for 24 hrs in presence of 9 uM sorafenib by microplate reader analysis (reference value: 1.094 to 1.099); type: functional
OS-RC-2 [24] = experiment: Reversal of sorafenib resistance in human OS-RC-2 cells assessed as optical density at 450 nm at 15 uM incubated for 24 hrs in presence of 15 uM sorafenib by microplate reader analysis (reference value: 0.645 to 0.850); type: functional
OS-RC-2 [25] = experiment: Reversal of sorafenib resistance in human OS-RC-2 cells assessed as optical density at 450 nm at 15 uM incubated for 24 hrs in presence of 12 uM sorafenib by microplate reader analysis (reference value: 0.776 to 0.944); type: functional
OS-RC-2 [26] = experiment: Reversal of sorafenib resistance in human OS-RC-2 cells assessed as optical density at 450 nm at 30 uM incubated for 24 hrs in presence of 12 uM sorafenib by microplate reader analysis (reference value: 0.776 to 0.944); type: functional
OS-RC-2 [27] = experiment: Reversal of sorafenib resistance in human OS-RC-2 cells assessed as optical density at 450 nm at 15 uM incubated for 24 hrs in presence of 27 uM sorafenib by microplate reader analysis (reference value: 0.316 to 0.328); type: functional
OS-RC-2 [28] = experiment: Reversal of sorafenib resistance in human OS-RC-2 cells assessed as optical density at 450 nm at 45 uM incubated for 24 hrs in presence of 9 uM sorafenib by microplate reader analysis (reference value: 1.094 to 1.099); type: functional
OS-RC-2 [29] = experiment: Reversal of sorafenib resistance in human OS-RC-2 cells assessed as optical density at 450 nm at 45 uM incubated for 24 hrs in presence of 21 uM sorafenib by microplate reader analysis (reference value: 0.477 to 0.526); type: functional
OS-RC-2 [30] = experiment: Reversal of sorafenib resistance in human OS-RC-2 cells assessed as optical density at 450 nm at 45 uM incubated for 24 hrs in presence of 6 uM sorafenib by microplate reader analysis (reference value: 1.025 to 1.182); type: functional
OS-RC-2 [31] = experiment: Antitumor activity against human OS-RC-2 cells xenografted in male immunodeficient BALB/c nude mouse assessed as tumor volume at 20 mg/kg/day, ip administered for 16 days and measured every other day (reference value: 741 +/- 294.89 mm3); type: functional; conditions: time 16 day
OS-RC-2 [32] = experiment: Reversal of sorafenib resistance in human OS-RC-2 cells assessed as optical density at 450 nm at 15 uM incubated for 24 hrs in presence of 21 uM sorafenib by microplate reader analysis (reference value: 0.477 to 0.526); type: functional
OS-RC-2 [33] = experiment: Induction of apoptosis in human OS-RC-2 cells assessed as increase in apoptotic cells at 100 to 500 uM by Annexin V-FITC/PI staining based flow cytometry analysis; type: functional, cell-based; conditions: dose 100-500 µM
786-0 [34] = experiment: Antiproliferative activity against human 786-0 cells assessed as inhibition of cell growth at 10 to 100 uM incubated for 48 hrs by CCK-8 assay; type: functional, cell-based; conditions: dose 10-100 µM
786-0 [35] = experiment: Inhibition of glycolysis in human 786-0 cells assessed as reduction in lactate production at 100 to 500 uM; type: functional, cell-based; conditions: dose 100-500 µM
OS-RC-2 [36] = experiment: Induction of cell cycle arrest in human OS-RC-2 cells assessed as suppression of cell cycle related protein expression at 100 to 500 uM by Western blot analysis; type: functional, cell-based; conditions: dose 100-500 µM
786-0 [37] = experiment: Induction of cell cycle arrest in human 786-0 cells assessed as suppression of cell cycle related protein expression at 100 to 500 uM by Western blot analysis; type: functional, cell-based; conditions: dose 100-500 µM
786-0 [38] = experiment: Antiproliferative activity against human 786-0 cells assessed as inhibition of cell growth at 500 uM incubated for 48 hrs by CCK-8 assay; type: functional, cell-based
OS-RC-2 [39] = experiment: Inhibition of glycolysis in human OS-RC-2 cells assessed as reduction in glucose consumption at 100 to 500 uM; type: functional, cell-based; conditions: dose 100-500 µM
OS-RC-2 [40] = experiment: Induction of apoptosis in human OS-RC-2 cells assessed as increase in apoptotic morphological changes at 100 to 500 uM; type: functional, cell-based; conditions: dose 100-500 µM
786-0 [41] = experiment: Induction of apoptosis in human 786-0 cells assessed as increase in apoptotic morphological changes at 100 to 500 uM; type: functional, cell-based; conditions: dose 100-500 µM
786-0 [42] = experiment: Induction of apoptosis in human 786-0 cells assessed as increase in apoptotic cells at 100 to 500 uM by Annexin V-FITC/PI staining based flow cytometry analysis; type: functional, cell-based; conditions: dose 100-500 µM
OS-RC-2 [43] = experiment: Inhibition of glycolysis in human OS-RC-2 cells assessed as reduction in lactate production at 100 to 500 uM; type: functional, cell-based; conditions: dose 100-500 µM
786-0 [44] = experiment: Inhibition of glycolysis in human 786-0 cells assessed as reduction in glucose consumption at 100 to 500 uM; type: functional, cell-based; conditions: dose 100-500 µM
OS-RC-2 [45] = experiment: Antiproliferative activity against human OS-RC-2 cells assessed as inhibition of cell growth at 500 uM incubated for 48 hrs by CCK-8 assay; type: functional, cell-based
OS-RC-2 [46] = experiment: Antiproliferative activity against human OS-RC-2 cells assessed as inhibition of cell growth at 10 to 100 uM incubated for 48 hrs by CCK-8 assay; type: functional, cell-based; conditions: dose 10-100 µM

SMILES: Cc1ccc(Nc2nc(NCCO)c3ccccc3n2)cc1
- OD (OS-RC-2 [1]): 0.184
- OD (OS-RC-2 [2]): 0.309
- OD (OS-RC-2 [3]): 0.231
- OD (OS-RC-2 [4]): 0.562
- Activity (OS-RC-2 [5]): 414.87 mm3
- OD (OS-RC-2 [6]): 0.925
- OD (OS-RC-2 [7]): 0.28
- OD (OS-RC-2 [8]): 0.321
- Activity [9]: Toxic
- OD (OS-RC-2 [10]): 0.717
- OD (OS-RC-2 [11]): 0.833
- OD (OS-RC-2 [12]): 0.2
- OD (OS-RC-2 [13]): 0.769
- OD (OS-RC-2 [14]): 0.3
- OD (OS-RC-2 [15]): 0.973
- OD (OS-RC-2 [16]): 0.186
- OD (OS-RC-2 [17]): 0.684
- OD (OS-RC-2 [18]): 1.248
- OD (OS-RC-2 [19]): 0.279
- Activity [20]: Toxic
- Activity [21]: 18.9 g
- OD (OS-RC-2 [22]): 0.501
- OD (OS-RC-2 [23]): 0.359
- OD (OS-RC-2 [24]): 0.341
- OD (OS-RC-2 [25]): 0.362
- OD (OS-RC-2 [26]): 0.334
- OD (OS-RC-2 [27]): 0.214
- OD (OS-RC-2 [28]): 0.334
- OD (OS-RC-2 [29]): 0.23
- OD (OS-RC-2 [30]): 0.419
- Activity (OS-RC-2 [31]): 572.68 mm3
- OD (OS-RC-2 [32]): 0.331

SMILES: COc1cc2nc(N3CCN(C(=O)C4CCCO4)CC3)nc(N)c2cc1OC (stereo unspecified)
- Activity (OS-RC-2 [33]): inactive
- Activity (786-0 [34]): inactive
- inhibition (786-0 [35]): Active
- Activity (OS-RC-2 [36]): Active
- Activity (786-0 [37]): Active
- Activity (786-0 [38]): Active
- inhibition (OS-RC-2 [39]): Active
- Activity (OS-RC-2 [40]): inactive
- Activity (786-0 [41]): inactive
- Activity (786-0 [42]): inactive
- inhibition (OS-RC-2 [43]): Active
- inhibition (786-0 [44]): Active
- Activity (OS-RC-2 [45]): Active
- Activity (OS-RC-2 [46]): inactive

Source: ChEMBL document CHEMBL5543100 (Eur J Med Chem, 2024)
